## Membrane permeability of cyclic peptides

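Lipid, pH, incubation time, direction and concentration are not recorded in the data file. The list need not hold all peptides of the study. Entries at the database's floor value (log10 P of -10) are not listed.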

PAMPA measures passive passage through an artificial lipid membrane.
P is given in units of 10^-6 cm/s (from log10 values with two decimals); larger means faster passage.

CC(C)C[C@@H]1NC(=O)CN(Cc2ccccc2)C(=O)[C@@H](C)NC(=O)[C@H]2CCCN2C(=O)[C@H](Cc2ccccc2)NC(=O)CN(Cc2ccccc2)C(=O)[C@@H]2CCCN2C1=O has PAMPA 0.58 × 10^-6 cm/s. C[C@@H]1NC(=O)[C@H]2CCCN2C(=O)[C@H](Cc2ccccc2)NC(=O)CN(Cc2ccccc2)C(=O)[C@@H]2CCCN2C(=O)CN(Cc2ccccc2)C(=O)CN(Cc2ccccc2)C1=O has PAMPA 0.93 × 10^-6 cm/s. For CCCN1CC(=O)N[C@H](CC(C)C)C(=O)N[C@@H](Cc2ccccc2)CC(=O)N2CCC[C@H]2C(=O)N(Cc2ccccc2)CC(=O)N[C@@H](Cc2ccccc2)C1=O the data give PAMPA 0.85 × 10^-6 cm/s. CCCN1CC(=O)N(Cc2ccccc2)CC(=O)N[C@@H](CC(C)C)C(=O)N2CCC[C@@H]2C(=O)N[C@@H](CC(C)C)C(=O)N[C@@H](Cc2ccccc2)C1=O is reported with PAMPA 2.3 × 10^-6 cm/s. The entry for CC(C)C[C@@H]1C(=O)N(C)[C@H](CC(C)C)C(=O)N2CCC[C@H]2C(=O)N[C@H](CC(C)C)C(=O)N[C@@H](Cc2ccccc2)C(=O)N2CCC[C@H]2C(=O)N[C@@H](Cc2ccccc2)CC(=O)N1C lists PAMPA 4.9 × 10^-6 cm/s. Listed for O=C1CN(Cc2ccccc2)C(=O)C[C@H](Cc2ccccc2)NC(=O)[C@H](Cc2ccccc2)NC(=O)CN(Cc2ccccc2)C(=O)[C@@H]2CCCN2C(=O)C[C@H](Cc2ccccc2)N1: PAMPA 1.5 × 10^-6 cm/s.

Listed for CC(C)C[C@H]1C(=O)N[C@@H](Cc2ccccc2)C(=O)N2CCC[C@@H]2C(=O)N(C)[C@@H](C)C(=O)N(Cc2ccccc2)CC(=O)N(Cc2ccccc2)CC(=O)N2CCC[C@@H]2C(=O)N1C: PAMPA 1.3 × 10^-6 cm/s. For CC(C)C[C@@H]1NC(=O)[C@@H]2CCCN2C(=O)CN(Cc2ccccc2)C(=O)CN(Cc2ccccc2)C(=O)C[C@H](Cc2ccccc2)NC(=O)[C@@H]2CCCN2C(=O)[C@H](Cc2ccccc2)NC1=O the data give PAMPA 1 × 10^-6 cm/s. For CCCN1CC(=O)N(Cc2ccccc2)CC(=O)N[C@H](CC(C)C)C(=O)N2CCC[C@@H]2C(=O)N[C@H](CC(C)C)C(=O)N[C@@H](Cc2ccccc2)C1=O the data give PAMPA 1.4 × 10^-6 cm/s. CCCN1CC(=O)N(C)[C@@H](CC(C)C)C(=O)N(Cc2ccccc2)CC(=O)N2CCC[C@@H]2C(=O)N(Cc2ccccc2)CC(=O)N[C@@H](Cc2ccccc2)C(=O)N2CCC[C@@H]2C1=O has PAMPA 1 × 10^-6 cm/s. Listed for CCCN1CC(=O)N(Cc2ccccc2)CC(=O)N[C@@H](CC(C)C)C(=O)N2CCC[C@@H]2C(=O)N[C@H](CC(C)C)C(=O)N[C@@H](Cc2ccccc2)C(=O)N2CCC[C@@H]2C1=O: PAMPA 1.5 × 10^-6 cm/s. The entry for CCCN1CC(=O)N(Cc2ccccc2)CC(=O)N(Cc2ccccc2)CC(=O)N2CCC[C@H]2C(=O)N[C@@H](CC(C)C)C(=O)N[C@@H](Cc2ccccc2)C(=O)N2CCC[C@@H]2C1=O lists PAMPA 0.46 × 10^-6 cm/s.

The entry for CC(C)C[C@@H]1NC(=O)C[C@H](Cc2ccccc2)NC(=O)[C@H](Cc2ccccc2)NC(=O)[C@H](CC(C)C)N(C)C(=O)[C@H]2CCCN2C(=O)CN(Cc2ccccc2)C1=O lists PAMPA 5.9 × 10^-6 cm/s. CC(C)C[C@@H]1C(=O)N(C)[C@H](CC(C)C)C(=O)N2CCC[C@H]2C(=O)N(Cc2ccccc2)CC(=O)N[C@@H](Cc2ccccc2)C(=O)N2CCC[C@@H]2C(=O)N[C@@H](Cc2ccccc2)CC(=O)N1C has PAMPA 3.1 × 10^-6 cm/s. The entry for CC(C)C[C@H]1C(=O)N2CCC[C@@H]2C(=O)N(C)[C@@H](CC(C)C)C(=O)N[C@@H](Cc2ccccc2)C(=O)N(C)[C@@H](C)C(=O)N(Cc2ccccc2)CC(=O)N1C lists PAMPA 7.9 × 10^-6 cm/s. CC(C)C[C@@H]1C(=O)N2CCC[C@@H]2C(=O)N(C)[C@H](CC(C)C)C(=O)N[C@@H](Cc2ccccc2)C(=O)N[C@@H](Cc2ccccc2)CC(=O)N(Cc2ccccc2)CC(=O)N1C is reported with PAMPA 5.5 × 10^-6 cm/s. Listed for CC(C)C[C@@H]1NC(=O)[C@@H]2CCCN2C(=O)C[C@H](Cc2ccccc2)NC(=O)CN(Cc2ccccc2)C(=O)[C@H](C)N(C)C(=O)[C@H](Cc2ccccc2)NC1=O: PAMPA 0.78 × 10^-6 cm/s. CCCN1CC(=O)N(C)[C@H](CC(C)C)C(=O)N[C@@H](CC(C)C)C(=O)N2CCC[C@H]2C(=O)N(Cc2ccccc2)CC(=O)N[C@@H](Cc2ccccc2)C1=O has PAMPA 2 × 10^-6 cm/s.

Listed for CC(C)C[C@@H]1C(=O)N2CCC[C@H]2C(=O)N(C)[C@H](CC(C)C)C(=O)N[C@@H](Cc2ccccc2)C(=O)N2CCC[C@H]2C(=O)N[C@H](C)C(=O)N(Cc2ccccc2)CC(=O)N1C: PAMPA 1.9 × 10^-6 cm/s. CC(C)C[C@H]1NC(=O)[C@H]2CCCN2C(=O)C[C@H](Cc2ccccc2)NC(=O)CN(Cc2ccccc2)C(=O)[C@H](C)NC(=O)[C@H](Cc2ccccc2)NC1=O is reported with PAMPA 0.46 × 10^-6 cm/s. Listed for CCCN1CC(=O)N[C@H](CC(C)C)C(=O)N(C)[C@@H](CC(C)C)C(=O)N2CCC[C@H]2C(=O)N(Cc2ccccc2)CC(=O)N[C@@H](Cc2ccccc2)C1=O: PAMPA 8.3 × 10^-6 cm/s. CC(C)C[C@@H]1NC(=O)[C@H]2CCCN2C(=O)C[C@H](Cc2ccccc2)NC(=O)CN(Cc2ccccc2)C(=O)[C@@H](C)NC(=O)[C@H]2CCCN2C(=O)[C@H](Cc2ccccc2)NC1=O is reported with PAMPA 0.058 × 10^-6 cm/s. CC(C)C[C@H]1NC(=O)C[C@H](Cc2ccccc2)NC(=O)[C@H](Cc2ccccc2)NC(=O)CN(Cc2ccccc2)C(=O)[C@@H]2CCCN2C(=O)C[C@H](Cc2ccccc2)NC1=O has PAMPA 0.63 × 10^-6 cm/s. CCCN1CC(=O)N(C)[C@H](CC(C)C)C(=O)N[C@@H](Cc2ccccc2)CC(=O)N2CCC[C@H]2C(=O)N(Cc2ccccc2)CC(=O)N[C@@H](Cc2ccccc2)C(=O)N2CCC[C@H]2C1=O has PAMPA 1.8 × 10^-6 cm/s.

The entry for CC(C)C[C@H]1C(=O)N(Cc2ccccc2)CC(=O)N2CCC[C@@H]2C(=O)N(Cc2ccccc2)CC(=O)N[C@@H](Cc2ccccc2)C(=O)N2CCC[C@@H]2C(=O)N[C@@H](Cc2ccccc2)CC(=O)N1C lists PAMPA 1.3 × 10^-6 cm/s.

2 of these entries, quoted again:

CC(C)C[C@@H]1NC(=O)[C@H]2CCCN2C(=O)C[C@H](Cc2ccccc2)NC(=O)CN(Cc2ccccc2)C(=O)[C@@H](C)NC(=O)[C@H]2CCCN2C(=O)[C@H](Cc2ccccc2)NC1=O is reported with PAMPA 0.058 × 10^-6 cm/s.
CCCN1CC(=O)N(Cc2ccccc2)CC(=O)N[C@@H](CC(C)C)C(=O)N2CCC[C@@H]2C(=O)N[C@H](CC(C)C)C(=O)N[C@@H](Cc2ccccc2)C(=O)N2CCC[C@@H]2C1=O is reported with PAMPA 1.5 × 10^-6 cm/s.

Collected by the curators of CycPeptMPDB (Li et al. 2023) from Townsend et al. 2020, doi:10.26434/chemrxiv.13335941.v1.